Molecular target: T1, Key_EGFR (Original Key targeted to EGFR by DARPin)
T1 construct: The Key alone; The His/TEV tag is marked optional; also called EGFR-targeted Key
T1 chain: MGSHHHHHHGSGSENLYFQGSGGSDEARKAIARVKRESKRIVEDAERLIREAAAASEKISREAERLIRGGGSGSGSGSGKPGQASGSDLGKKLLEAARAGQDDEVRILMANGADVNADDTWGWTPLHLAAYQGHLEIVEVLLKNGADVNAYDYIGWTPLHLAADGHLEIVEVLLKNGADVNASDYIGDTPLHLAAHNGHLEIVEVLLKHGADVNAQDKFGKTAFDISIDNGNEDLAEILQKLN
Test: confocal microscopy; HEK293T/EGFR cells carry the Key without the Cage
Experimental: Co-localization dependent activation was also observed at the sub-cellular level by confocal microscopy. CL_CHKE recruited Bcl2-AF680 to the plasma membrane of HEK293T/Her2/EGFR cells but not HEK293T/Her2 or HEK293T/EGFR (FIG. 2c).
HEK293T cells were grown in ibidi μ-slide 8 well coverslips for 1 day at 37° C. and 5% CO2 (ibidi 80826). Cell staining and incubation were performed in DMEM, high glucose, HEPES, no phenol red (Gibco 21063029). Cell nuclei were stained with Invitrogen Molecular Probes NucBlue™ Live ReadyProbes™ Reagent according to manufacturer's instructions (Invitrogen R37605). Cells were incubated in culture medium containing 1% BSA, 20 nM Her2_Cage-I269S, 20 nM Key_EGFR, and 50 nM Bcl2-AF680 for 1-2 hours at 37° C. and 5% CO₂. Images were acquired on a Leica SP8X confocal microscope and analyzed in Fiji.

B1: Bcl2-AF680 (other)
chain: MGSHHHHHHGSGSENLYFQGSGGSAHAGRTGYDNREIVMKYIHYKLSQRGYEWDAGDVGAAPPGAAPAPGIFSSQPGHTPHPAASRDPVARTSPLQTPAAPGAAAGPALSPVPPVVHLTLRQAGDDFSRRYRRDFAEMSSQLHLTPFTARGRFATVVEELFRDGVNWGRIVAFFEFGGVMCVESVNREMSPLVDNIALWMTEYLNRHLHTWIQDNGGWDAFVELYGPSMRGC
modifications: Alexa Fluor 680 C2 Maleimide on the C-terminal cysteine
notes: It was used for confocal microscopy; also called Bcl2-cys labeled with Alexa Fluor 680; Effector
binding result: no binding

Reference: patent US20220218752A1 (University of Washington, published 2022)
